Assay results reported in ChEMBL document CHEMBL1155518, “Synthesis and structure-activity relationships of long-acting beta2 adrenergic receptor agonists incorporating metabolic inactivation: an antedrug approach” (J Med Chem, 2010).
Active and inactive are the calls of the source. The rule behind the calls is not given here.

The chains behind the UniProt entries cited, without tags or fusion partners.
UniProt P07550, whole entry: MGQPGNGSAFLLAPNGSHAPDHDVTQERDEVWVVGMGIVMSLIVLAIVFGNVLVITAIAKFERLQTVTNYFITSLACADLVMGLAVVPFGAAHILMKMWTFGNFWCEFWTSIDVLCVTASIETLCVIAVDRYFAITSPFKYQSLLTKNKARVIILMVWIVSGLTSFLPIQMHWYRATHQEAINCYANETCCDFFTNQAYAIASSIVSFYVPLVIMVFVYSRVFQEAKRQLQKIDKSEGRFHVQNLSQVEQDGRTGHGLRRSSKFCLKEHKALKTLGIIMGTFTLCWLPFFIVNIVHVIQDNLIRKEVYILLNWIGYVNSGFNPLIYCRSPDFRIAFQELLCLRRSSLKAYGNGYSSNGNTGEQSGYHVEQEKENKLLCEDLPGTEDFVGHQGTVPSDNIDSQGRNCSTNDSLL

Assays:
[1] = species: Cavia porcellus; assay: Bronchodialatory activity against electrically-stimulated contraction in guinea pig trachea assessed as inhibition of recovery of contractile effect measured after 1 hr of drug washout; type: functional, tissue-based
[2] = species: Cavia porcellus; assay: Bronchodialatory activity against electrically-stimulated contraction in guinea pig trachea assessed as inhibition of recovery of contractile effect measured after 3 hrs of drug washout; type: functional, tissue-based
[3] = molecular target: Beta-2 adrenergic receptor (Homo sapiens, UniProt P07550)

SMILES	Activity [1]	Activity [2]	EC50 [3] [nM]
COc1ccc(C[C@@H](C)NC[C@H](O)c2ccc(O)c(NC=O)c2)cc1	inactive	inactive	
CC(=O)O.OCc1cc([C@@H](O)CNCCCCCCOCCOCc2c(Cl)cccc2Cl)ccc1O [VILANTEROL ACETATE]			0.398
